# Assay results published in patent US11390597B2, “Salt and solid state forms of escitalopram” (priority 2017, dated 2022).
# Assay: Treatment of human subjects with escitalopram gentisate composition
# Details: human subject afflicted with a neuropsychiatric disorder, periodic administration
# Description: Periodic administration is meant to include inter alia IV, oral and subcutaneous administration.
structure (smiles),measurement,value
CN(C)CCCC1(c2ccc(F)cc2)OCc2cc(C#N)ccc21.O=C(O)c1cc(O)ccc1O (stereo not shown) [escitalopram gentisate],adverse side effects / safety of the treatment,without undue adverse side effects
